Data as given in US20230227484A1, “PYRIMIDINE COMPOUND AS AXL INHIBITOR” (NANJING CHIA TAI TIANQING PHARMACEUTICAL CO., LTD., priority 2020, published 2023).

Amino acid sequences for entries named in this document (tags omitted). Residues count along the entry.
UniProt P30530, 473-894 limits assumed: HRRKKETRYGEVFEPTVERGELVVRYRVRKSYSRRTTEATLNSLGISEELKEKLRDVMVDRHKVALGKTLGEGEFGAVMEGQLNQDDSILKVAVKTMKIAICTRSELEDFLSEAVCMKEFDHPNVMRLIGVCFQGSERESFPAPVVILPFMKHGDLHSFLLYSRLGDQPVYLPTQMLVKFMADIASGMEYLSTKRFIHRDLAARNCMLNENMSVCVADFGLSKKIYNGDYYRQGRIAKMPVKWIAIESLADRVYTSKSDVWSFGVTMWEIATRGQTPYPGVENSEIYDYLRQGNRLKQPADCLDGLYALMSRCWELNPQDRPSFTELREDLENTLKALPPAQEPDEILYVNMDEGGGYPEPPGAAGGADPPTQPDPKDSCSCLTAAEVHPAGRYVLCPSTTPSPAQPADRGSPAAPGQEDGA

Key:
AXL kinase = AXL kinase (Homo sapiens, UniProt P30530); experiment: Inhibitory activity of compound against AXL kinase (HTRF KinEASE); assay type: biochemical; conditions: read-out: Inhibitory activity IC50 (nM) against AXL; AXL enzyme (Carna, 08-107), ATP 15 μM; "<" means below detection limit of the test
[1] = Pharmacokinetic study of compounds on ICR mice; conditions: male ICR mice, 10 mg-kg^1 by gavage, plasma
[2] = test system: MV-4-11 (human myeloid monocytic leukemia cell line); experiment: Proliferation inhibition activity of compounds to MV-4-11 cells (CellTiter-Glo); conditions: read-out: IC50 (MV4-11), MV4-11 cells, 72 h dosing

| SMILES | IC50 (AXL kinase) [nM] | AUC0-24 [1] [ng·h/mL] | Cmax [1] [ng/mL] | T1/2 [1] [h] | Tmax [1] [h] | IC50 [2] [nM] |
| --- | --- | --- | --- | --- | --- | --- |
| CP(C)(=O)c1cc(F)ccc1Nc1nc(Nc2ccc3c(c2)CCC(N2CCC4CC42)CC3)ncc1Cl (single isomer, unassigned) [Example 58 Isomer 58-1] | 1.88 | 822 | 171 | 4.04 | 0.50 | – |
| Cc1ccc(Nc2nc(Nc3ccc4c(c3)CC[C@@H](N3CC[C@@H](F)C3)CC4)ncc2Cl)c(P(C)(C)=O)c1 (single isomer, unassigned) | 3.21 | – | – | – | – | 3.9 |
| CP(C)(=O)c1cc(C#N)ccc1Nc1nc(Nc2ccc3c(c2)CCC(N2CC4CC2C4)CC3)ncc1Cl (single isomer, unassigned) [Example 86 Isomer 86-2] | 1.57 | – | – | – | – | 2.91 |
| CP(C)(=O)c1cc(OC(F)(F)F)ccc1Nc1nc(Nc2ccc3c(c2)CCC(N2C[C@H]4C[C@@H]2CO4)CC3)ncc1Cl (single isomer, unassigned) [Example 103 Isomer 103-1] | 1.34 | – | – | – | – | 6.24 |
| CP(C)(=O)c1cc(C#N)ccc1Nc1nc(Nc2ccc3c(c2)CCC(N2C4CCC2COC4)CC3)ncc1Cl (single isomer, unassigned) [Example 88 Isomer 88-2] | 0.55 | – | – | – | – | 2.06 |
| CP(C)(=O)c1cc(OC2CC2)ccc1Nc1nc(Nc2ccc3c(c2)CC[C@@H](N2CC4CC2C4)CC3)ncc1Cl (single isomer, unassigned) | 1.09 | – | – | – | – | 5.42 |
| Cc1ccc(Nc2nc(Nc3ccc4c(c3)CCC(N3C5COCC3C5)CC4)ncc2Cl)c(P(C)(C)=O)c1 (single isomer, unassigned) [Example 89 Isomer 89-1] | 0.77 | – | – | – | – | 2.99 |
| CP(C)(=O)c1cc(OC(F)F)ccc1Nc1nc(Nc2ccc3c(c2)CCC(N2C4COCC2C4)CC3)ncc1Cl (single isomer, unassigned) [Example 84 Isomer 84-1] | 0.98 | – | – | – | – | 2.55 |
| CP(C)(=O)c1cc(F)ccc1Nc1nc(Nc2ccc3c(c2)CCC(N2CC4CC4C2)CC3)ncc1Cl (single isomer, unassigned) [Example 59 Isomer 59-1] | 1.39 | 2380 | 695 | 2.90 | 0.25 | – |
| CP(C)(=O)c1cc(F)ccc1Nc1nc(Nc2ccc3c(c2)CCC(N2CC4CC2C4)CC3)ncc1Cl (single isomer, unassigned) [Example 60 Isomer 60-1] | 1.65 | 857 | 572 | 1.55 | 0.50 | – |
| Cc1ccc(Nc2nc(Nc3ccc4c(c3)CC[C@@H](N3CCC5(COC5)C3)CC4)ncc2Cl)c(P(C)(C)=O)c1 (single isomer, unassigned) | 2.04 | – | – | – | – | 3.03 |
| Cc1ccc(Nc2nc(Nc3ccc4c(c3)CCC(N3CC5CC3C5)CC4)ncc2Cl)c(P(C)(C)=O)c1 (single isomer, unassigned) | 1.23 | – | – | – | – | 9.38 |
| CP(C)(=O)c1cc(F)ccc1Nc1nc(Nc2ccc3c(c2)CCC(N2CC4CC2CO4)CC3)ncc1Cl (single isomer, unassigned) [Example 63 Isomer 63-1] | 1.93 | – | – | – | – | 7.02 |
| Cc1ccc(Nc2nc(Nc3ccc4c(c3)CCC(N3CCC5(CC5)C3)CC4)ncc2Cl)c(P(C)(C)=O)c1 (single isomer, unassigned) [Example 69 Isomer 69-1] | 1.35 | – | – | – | – | 3.46 |
| CP(C)(=O)c1cc(F)ccc1Nc1nc(Nc2ccc3c(c2)CCC(N2CCC4CC42)CC3)ncc1Cl (single isomer, unassigned) [Example 58 Isomer 58-2] | 6.45 | 549 | 278 | 3.06 | 0.25 | – |
| CP(C)(=O)c1cc(C#N)ccc1Nc1nc(Nc2ccc3c(c2)CCC(N2C4COCC2C4)CC3)ncc1Cl (single isomer, unassigned) [Example 87 Isomer 87-1] | 0.53 | – | – | – | – | 3.78 |
| CP(C)(=O)c1cc(OC(F)F)ccc1Nc1nc(Nc2ccc3c(c2)CCC(N2C4CCC2COC4)CC3)ncc1Cl (single isomer, unassigned) [Example 85 Isomer 85-1] | 0.73 | – | – | – | – | 1.93 |
| CP(C)(=O)c1cc(Cl)ccc1Nc1nc(Nc2ccc3c(c2)CCC(N2C[C@H]4C[C@@H]2CO4)CC3)ncc1Cl (single isomer, unassigned) [Example 105 Isomer 105-1] | 0.86 | – | – | – | – | 2.16 |
| CP(C)(=O)c1cc(Cl)ccc1Nc1nc(Nc2ccc3c(c2)CC[C@@H](N2C[C@@H]4C[C@H]2CO4)CC3)ncc1Cl (single isomer, unassigned) | 0.71 | – | – | – | – | 3.51 |
| CP(C)(=O)c1cc(OC(F)(F)F)ccc1Nc1nc(Nc2ccc3c(c2)CCC(N2CC4CC2C4)CC3)ncc1Cl (single isomer, unassigned) [Example 102 Isomer 102-1] | 1.16 | – | – | – | – | 5.19 |
